Amino acid sequences for entries named in this document (tags omitted).
UniProt P35372, whole entry: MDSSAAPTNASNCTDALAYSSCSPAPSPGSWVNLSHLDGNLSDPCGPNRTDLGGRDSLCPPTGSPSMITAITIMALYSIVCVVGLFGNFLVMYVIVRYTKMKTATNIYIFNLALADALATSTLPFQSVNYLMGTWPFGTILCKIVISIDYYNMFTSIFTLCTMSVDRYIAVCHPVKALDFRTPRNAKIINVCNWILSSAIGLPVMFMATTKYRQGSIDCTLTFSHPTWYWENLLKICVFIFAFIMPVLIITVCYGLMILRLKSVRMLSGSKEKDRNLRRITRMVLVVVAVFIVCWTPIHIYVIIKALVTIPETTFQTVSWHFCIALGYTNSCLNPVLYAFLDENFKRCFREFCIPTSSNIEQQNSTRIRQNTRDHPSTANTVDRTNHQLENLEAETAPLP

In publication PMC9570967 (Molecules, 2022):

molecular target: human μ-opioid receptor (OPRM1) (Homo sapiens, UniProt P35372); experiment: cell-based; conditions: not given

Row | Compound | EC50 [nM]
1 | C=C[C@H]1[C@@H]2CCC[C@@]1(c1cccc(OC)c1)CCN2CCc1ccccc1 [Compound 13, (1S,5R,9R)-5-(3-Methoxyphenyl)-2-phenethyl-9-vinyl-2-azabicyclo [3.3.1]nonane] | > 10000
2 | C=C[C@@H]1[C@@H]2CCC[C@@]1(c1cccc(O)c1)CCN2CCc1ccccc1 [Compound 14, 3-((1S,5R,9S)-2-Phenethyl-9-vinyl-2-azabicyclo [3.3.1]nonan-5-yl)phenol] | 3.94
3 | C=C[C@H]1[C@@H]2CCC[C@@]1(c1cccc(O)c1)CCN2CCc1ccccc1 [Compound 15, 3-((1S,5R,9R)-2-Phenethyl-9-vinyl-2-azabicyclo [3.3.1]nonan-5-yl)phenol] | > 10000
4 | C/C=C\[C@@H]1[C@H]2CCC[C@]1(c1cccc(O)c1)CCN2CCc1ccccc1 [Compound 18, 3-((1R,5S,9S)-2-Phenethyl-9-((Z)-prop-1-en-1-yl)-2-azabicyclo [3.3.1]nonan-5-yl)phenol] | 0.07
5 | C/C=C\[C@H]1[C@@H]2CCC[C@@]1(c1cccc(O)c1)CCN2CCc1ccccc1 [Compound 20, 3-((1S,5R,9R)-2-Phenethyl-9-((Z)-prop-1-en-1-yl)-2-azabicyclo [3.3.1]nonan-5-yl)phenol] | > 10000
6 | C/C=C\[C@@H]1[C@@H]2CCC[C@@]1(c1cccc(O)c1)CCN2CCc1ccccc1 [Compound 21, 3-((1S,5R,9S)-2-Phenethyl-9-((Z)-prop-1-en-1-yl)-2-azabicyclo [3.3.1]nonan-5-yl)phenol] | 4.66
7 | CC/C=C\[C@H]1[C@H]2CCC[C@]1(c1cccc(O)c1)CCN2CCc1ccccc1 [Compound 23, 3-((1R,5S,9R)-9-((Z)-But-1-en-1-yl)-2-phenethyl-2-azabicyclo [3.3.1]nonan-5-yl)phenol] | 11.6
8 | CC/C=C\[C@@H]1[C@H]2CCC[C@]1(c1cccc(O)c1)CCN2CCc1ccccc1 [Compound 24, 3-((1R,5S,9S)-9-((Z)-But-1-en-1-yl)-2-phenethyl-2-azabicyclo [3.3.1]nonan-5-yl)phenol] | 14.7
9 | CC/C=C\[C@@H]1[C@@H]2CCC[C@@]1(c1cccc(O)c1)CCN2CCc1ccccc1 [Compound 26, 3-((1S,5R,9S)-9-((Z)-But-1-en-1-yl)-2-phenethyl-2-azabicyclo [3.3.1]nonan-5-yl)phenol] | > 10000
10 | CC/C=C\[C@H]1[C@@H]2CCC[C@@]1(c1cccc(O)c1)CCN2CCc1ccccc1 [Compound 27, 3-((1S,5R,9R)-9-((Z)-But-1-en-1-yl)-2-phenethyl-2-azabicyclo [3.3.1]nonan-5-yl)phenol] | > 10000

same assay, conditions: read-out: MOR Agonist %Emax ± SEM

Row | Compound | Emax [%]
11 | C/C=C\[C@H]1[C@H]2CCC[C@]1(c1cccc(O)c1)CCN2CCc1ccccc1 [Compound 17, 3-((1R,5S,9R)-2-Phenethyl-9-((Z)-prop-1-en-1-yl)-2-azabicyclo [3.3.1]nonan-5-yl)phenol] | 89.5
